Reference: patent US9701959B2, “High throughput screen for biologically active polypeptides” (Invenra Inc., priority 2012, dated 2017)

System: E. coli MG1655
Experiment: Minimal Inhibitory Concentration (MIC) in E. coli, Alamar Blue, hit validation
Assay type: cell-based
Settings: MIC at 18 hrs in E. coli; overnight at 35° C., triplicate
Procedure: Equipment: • Absorption and fluorescence plate reader—Tecan Safire • CO2 Incubator
Reagents: • Six chemically synthesized peptides—Biosynthesis Inc. • E. coli MG1655 (ATCC) • LB media (Sigma-Aldrich) • Alamar Blue assay kit (Life Tech)
3) Start an overnight culture of E. coli MG1655 in 5 mL of LB and grow at 37° C. with shaking at 200 rpm. 4) In the morning dilute overnight culture to OD600=0.00075 in 10 mL LB+1 mL Alamar Blue Stain. 5) Make seven (7), 1:2 serial dilutions of each peptide starting at […] in a final volume of 70 μL of PBS. 6) Add 20 μL of serial dilution of peptides in triplicate to a white small volume 96-well plate. Add 20 μl of PBS alone to the 8th well. 7) Add 120 μL of E. coli/Alamar blue dilution to each of the test wells. 8) Incubate overnight (18 hrs) at 35° C.

## CC[C@H](C)[C@H](NC(=O)CN)C(=O)NCC(=O)N[C@@H](C)C(=O)N[C@H](C(=O)N[C@@H](CC(C)C)C(=O)N[C@@H](CCCCN)C(=O)N[C@H](C(=O)N[C@@H](CC(C)C)C(=O)N[C@H](C(=O)N[C@H](C(=O)NCC(=O)N[C@@H](CC(C)C)C(=O)N1CCC[C@H]1C(=O)N[C@@H](C)C(=O)N[C@@H](CC(C)C)C(=O)N[C@H](C(=O)N[C@@H](CO)C(=O)N[C@@H](Cc1c[nH]c2ccccc12)C(=O)N[C@H](C(=O)N[C@@H](CCCCN)C(=O)N[C@@H](CCCNC(=N)N)C(=O)N[C@@H](CCCCN)C(=O)N[C@@H](CCCNC(=N)N)C(=O)N[C@@H](CCC(N)=O)C(=O)N[C@@H](CCC(N)=O)C(N)=O)[C@@H](C)CC)[C@@H](C)CC)[C@@H](C)O)[C@@H](C)O)C(C)C)C(C)C [Melittin]
  Ave MIC: 13 µM
